PubChem BioAssay AID1530 (NMMLSC, 2009)
This is a selection; strong and weak results do not stand in their true shares. Some tests of the compounds listed are not included; inactive here does not mean inactive elsewhere. Active and inactive are the calls of the source. No stated cut-off is given here; in the data, active means percent response above about 24% (passing the limit was not always enough); inactive means the rest.

tested on: MEKK2 (MAP3K2) mutant PB1 domain binding to MEK5, human; assay: MEK5 binding signal on mutant MEKK2 PB1, primary screen, biochemical, multiplex bead flow cytometry, Alexa488-MEK5 (AID 1530); conditions: at 10 µM, active compounds read high

| SMILES | percent response |
| --- | --- |
| COc1ccc(Br)c(C(=O)NCC2(N3CCCCC3)CCCCC2)c1 | inactive: -1% |
| CN(C)c1cccc(C(=O)NCC2(N(C)C)CCCCC2)c1 | inactive: 8% |
| CC(C)Oc1ccc(C(=O)NCC2(N(C)C)CCCCC2)cc1 | inactive: 0% |
| O=C(OC1CN2CCC1CC2)C(CO)(c1ccccc1)c1ccccc1 (centres undefined) | inactive: 1% |
| COc1ccc(Cl)cc1C(=O)NCC1(N(C)C)CCCCC1 | inactive: 6% |
| COc1cccc(C(=O)NCC2(N3CCCCC3)CCCCC2)c1 | inactive: -2% |
| O=C(NCC1(N2CCCCC2)CCCCC1)c1cccc(Cl)c1 | inactive: -6% |
| CN(C)C1(CNC(=O)c2ccc(Br)cc2)CCCCC1 | inactive: 4% |
| COc1cc(C(=O)NCC2(N(C)C)CCCCC2)c([N+](=O)[O-])cc1OC | inactive: -3% |
| O=C(NCC1(N2CCCCC2)CCCCC1)c1cc(F)c(F)cc1Cl | inactive: -4% |
| C=CCN1CCN(CCOC(=O)C(O)(c2ccccc2)c2ccccc2)CC1 | inactive: 2% |
| O=C(NCC1(N2CCCCC2)CCCCC1)c1cccc(Br)c1 | inactive: -2% |
| CCN1CCCC(OC(=O)C2(O)c3ccccc3C=Cc3ccccc32)C1 (centres undefined) | inactive: -2% |
| Cc1cc(C(=O)NCC2(N3CCCCC3)CCCCC2)ccc1[N+](=O)[O-] | inactive: 9% |
| COc1ccc(C(=O)NCC2(N(C)C)CCCCC2)cc1 | inactive: 1% |
| CN(C)c1ccc(C(=O)NCC2(N(C)C)CCCCC2)cc1 | inactive: 8% |
| CN(C)C1CCCC1OC(=O)C(O)(c1ccccc1)c1ccccc1 (centres undefined) | inactive: 3% |
| Cc1ccccc1C(=O)NCC1(N2CCCCC2)CCCCC1 | inactive: -7% |
| CC(C)N1C(=O)CC2(CCN(CCOC(=O)C(O)(c3ccccc3)c3ccccc3)CC2)C1=O | inactive: 2% |
| COc1cc(SC)ccc1C(=O)NCC1(N(C)C)CCCCC1 | inactive: 6% |
| CCN(CC)CC(C)C(C)OC(=O)C(O)(c1ccccc1)c1ccccc1 (centres undefined) | inactive: -2% |
| Cc1ccc(C(=O)NCC2(N3CCCCC3)CCCCC2)cc1 | inactive: 0% |
| O=C(NCC1(N2CCCCC2)CCCCC1)c1cc([N+](=O)[O-])ccc1Cl | inactive: -19% |
| CN1[C@@H]2CC[C@H]1CC(OC(=O)C(O)(c1ccccc1)c1ccccc1)C2 (some centres undefined) | inactive: 6% |
